Literature values in publication PMC10223992, “In Silico-Motivated Discovery of Novel Potent Glycogen Synthase-3 Inhibitors: 1-(Alkyl/arylamino)-3H-naphtho[1,2,3-de]quinoline-2,7-dione Identified as a Scaffold for Kinase Inhibitor Development” (Pharmaceuticals, 2023).

System: GSK-3β
Set-up: method as in ChEMBL database [53]
Conditions: read-out: IC50 (GSK-3β, known actives); cited from earlier work

Row | Compound | IC50 [µM]
1 | Cc1cc(-c2cc(-c3nc4ccc(CN5CCN(C)CC5)cc4[nH]3)c(=O)[nH]n2)cc(C)c1O [CHEMBL270473] | 0.0015
2 | Cc1cccc(N2CCN(CCCNC(=O)c3nc(-c4cccnc4)no3)C(C)C2)c1 (centres unmarked) [CHEMBL254582] | 0.2
